Our source for the IC50 values is patent US10961242B2, “Compounds as autotaxin inhibitors and pharmaceutical compositions comprising the same” (LegoChem Biosciences, Inc., priority 2018, dated 2021).

Some compounds may have been tested in ways that are not shown here.

The target in this assay is human ENPP2 (Homo sapiens (Human), UniProt Q13822). Nature of the assay: Inhibitory activity on human ENPP2 (FS-3 assay). Conditions: human ENPP2, FS-3 substrate, 30 min at 37° C.

Take “1-(1H-1,2,3-benzotrizol-5-yl)-3-methyl-8[2-({[3-(trifluoromethoxy)phenyl]methyl}amino)pyrimidine-5-carbonyl]-1,3,8-triazaspiro[4,5]-decane-2,4-dione”: the IC50 (as a rule, the concentration that gives 50% inhibition) amounted to 9 nM.
